# Values quoted from earlier work in patent publication US10456404B2, “Targeting cGMP-related phosphodiesterases to reduce cyst formation in cystic kidney disease, and related materials and methods” (Indiana University Research and Technology Corporation, priority 2015, dated 2019).
# The chains behind the UniProt entries cited, without tags or fusion partners. Where a name states a change or a piece, a line headed by the entry shows the natural chain unless it says otherwise.
# UniProt O70628: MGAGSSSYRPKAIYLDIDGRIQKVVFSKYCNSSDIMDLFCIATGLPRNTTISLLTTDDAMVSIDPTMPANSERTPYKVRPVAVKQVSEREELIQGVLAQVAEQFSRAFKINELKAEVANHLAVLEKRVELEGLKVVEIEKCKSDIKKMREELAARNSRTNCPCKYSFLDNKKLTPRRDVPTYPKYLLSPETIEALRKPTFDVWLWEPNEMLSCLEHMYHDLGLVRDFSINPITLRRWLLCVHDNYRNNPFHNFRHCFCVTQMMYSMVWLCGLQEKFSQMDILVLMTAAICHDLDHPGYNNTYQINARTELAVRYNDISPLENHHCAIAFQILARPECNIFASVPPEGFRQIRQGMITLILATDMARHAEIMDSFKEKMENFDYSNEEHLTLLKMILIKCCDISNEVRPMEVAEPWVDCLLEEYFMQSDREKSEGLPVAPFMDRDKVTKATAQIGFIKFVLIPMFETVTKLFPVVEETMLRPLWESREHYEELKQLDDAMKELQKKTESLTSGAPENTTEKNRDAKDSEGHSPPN
# Biological target: murine PDE9 (Mus musculus, UniProt O70628)
# Conditions: cited from earlier work
structure (smiles),measurement,value
"C[C@H](Cc1nc2c(cnn2-c2ccccc2Cl)c(=O)[nH]1)C(F)(F)F [BAY 73-6691, 1-(2-chlorophenyl)-6-[(2R)-3,3,3-trifluoro-2-methylpropyl]-1,5-dihydro-4H-pyrazolo[3,4-d]pyrimidine-4-one]",inhibition of murine PDE9 activity in vitro,selectively inhibit
